Measured values taken from patent US9382265B2, “Oxazolidone compound, preparing method and application thereof” (SHANGHAI INSTITUTE OF MATERIA MEDICA, CHINESE ACADEMY OF …, priority 2013, dated 2016).

Sequences of proteins named here, by UniProt entry; tags and fusion partners are left off. Residues count along the entry.
UniProt P00742, 41-179 partner limits assumed: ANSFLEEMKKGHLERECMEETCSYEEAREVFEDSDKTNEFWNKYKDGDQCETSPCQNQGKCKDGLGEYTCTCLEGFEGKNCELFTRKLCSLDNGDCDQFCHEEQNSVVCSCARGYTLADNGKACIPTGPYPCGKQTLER
UniProt P00742, 235-488 limits assumed: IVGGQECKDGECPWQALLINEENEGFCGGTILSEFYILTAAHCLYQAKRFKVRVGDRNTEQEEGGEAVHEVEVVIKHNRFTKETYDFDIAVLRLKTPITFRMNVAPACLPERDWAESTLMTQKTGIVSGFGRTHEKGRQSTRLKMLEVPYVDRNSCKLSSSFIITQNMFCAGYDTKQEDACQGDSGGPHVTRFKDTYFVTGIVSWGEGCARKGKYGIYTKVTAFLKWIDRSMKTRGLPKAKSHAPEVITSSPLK

Molecular target: T1, human recombinant FXa (Homo sapiens, UniProt P00742)
T1 construct: purchased Calbiochem; host or cells: human plasma
Assay: FXa inhibitory activity assay (chromogenic substrate, 405 nm)
Assay type: biochemical
Settings: inhibitory activity on FXa, preincubated at 37° C. for 10 mins
Experimental: Experimental principle and method: FXa cuts the Arg carboxyl end in the substrate N-Z-D-Arg-Gly-Arg-pDA in vitro and releases p-nitrophenylamine which has specific absorption at 405 nm wavelength. The amount of the […] generated is determined at 405 nm to evaluate the activity of the compound to inhibit the human recombinant FXa in vitro.
Human plasma coagulation factor Xa was purchased from Calbiochem; the substrate N-Z-D-Arg-Gly-Arg-pDA was purchased from chromogenic. The subject compound, enzyme and the reaction buffer were mixed and preincubated at 37° C. for 10 mins. The substrate was added. The absorption at 405 nm wavelength was measured continuously over 20 mins. At the same time, a blank control group (without enzyme, 100% inhibition rate) and a negative control group (replace the subject compound with DMSO, 0% inhibition rate) were set up. The reaction system was 100 μl (50 μl of Tris buffer, 10 μl of compound, 20 μl (0.027 U/ml) of enzyme, 20 μl (300 μM) of substrate). Each concentration of each sample was assayed in triplicate. The experiment was carried out for 2 times independently.

- IC50: 6.68 ± 0.79 nM
Structure (SMILES): O=C(NC[C@@H]1OC(=O)N2c3ccc(N4CCCCC4=O)cc3OC[C@@H]12)c1ccc(Cl)s1 [Compound 2, 5-chloro-N-(((3S,3aS)-1-oxo-7-(2-oxopiperidin-1-yl)-1,3,3a,4-tetrahydrobenzo[b]oxazolo[3,4-d][1,4]oxazin-3-yl)methyl)thiophene-2-carboxamide]
